Ki data for one molecule are collected here from ChEMBL document CHEMBL1128296, “Quantitative binding site model generation: compass applied to multiple chemotypes targeting the 5-HT1A receptor” (J Med Chem, 1995).

Structures are written as SMILES.

The nature of the test: Tested for activity against 5-hydroxytryptamine 1A receptor from bovine hippocampus.

In general, Ki refers to the equilibrium dissociation constant of an inhibitor or competing ligand from its target.

For the molecule `CCCN1CC[C@H]2c3c(O)cccc3CC[C@H]21`, the inhibitory constant (Ki) came to 3 nM.
